Values quoted from earlier work in paper PMC4561054 (Drugs in R&D, 2015).

Conditions: cited from earlier work
[1] = severe renal impairment vs healthy, 1-μg/kg subcutaneous single dose

Substance | Reduction in clearance (ESRD on hemodialysis, package label) | Decreases in apparent clearance (renal impairment vs healthy, 1-μg/kg subcutaneous single dose) | Increase in AUC [1] [%] | Increase in Cmax [1] [%]
interferon-α2a: interferon largely metabolized by the liver; package label (Pegasys) | 25–45% |  |  | 
interferon-α2b: interferon studied in a single-dose pharmacokinetic study in renal impairment (ref 14: pegylated interferon-alpha2b) |  | up to 45% | 90 | 90
